Results as given in ChEMBL document CHEMBL5241098, “Progress in the development of small molecular inhibitors of the Bruton's tyrosine kinase (BTK) as a promising cancer therapy” (Bioorg Med Chem, 2021).

Tests used:
[1] = species: Homo sapiens; experiment: Selectivity index, ratio for inhibition of HCK (unknown origin) to competitive inhibition of recombinant human BTK
[2] = species: Homo sapiens; experiment: Selectivity index, ratio for inhibition of EGFR (unknown origin) to competitive inhibition of recombinant human BTK
[3] = species: Homo sapiens; experiment: Selectivity index, ratio for inhibition of FGR (unknown origin) to competitive inhibition of recombinant human BTK

Measured: Ratio

C=C(Cl)C(=O)N1CCC(n2nc(-c3ccc(Oc4ccccc4)cc3)c3c(N)ncnc32)CC1
< 50: all assays above
